# dFosB activator: activators of delta FosB homodimer, primary screen, biochemical, fluorescence polarization, TAMRA-CDK5 oligo, single point; Protein FosB (Mus musculus), P13346; purified delta FosB; percent of positive-control signal above neutral wells; AID 493131, 2011; hit rate 0.99% among 340,000; activation, % at 25 µM;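 active = mean activation above about 17%, with every replicate also reaching it, limit read from the data, passing the limit was not always enough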
# UUG fidelity: modulators of start codon recognition fidelity in yeast; S. cerevisiae UUG-firefly luciferase reporter, luminescence/redox ratio; activity score, % at 18.7 µM; hit rate 0.13% among 350,000; AID 602363;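 active = replicate mean at a twofold rise or more, about +100% in these data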;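 note: firefly luciferase made from a UUG start codon reports start codon fidelity; reporter light over untreated wells divided by growth signal over untreated wells; some hits fall short of that in this replicate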
# CDK5 inh: inhibitors of human CDK5/p35 kinase, primary screen, biochemical, single concentration; hit rate 0.01% among 330,000; inhibition, % at 10 µM; Recombinant CDK5/p35, ADP-Glo luminescence, 60 min;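 active = highest replicate inhibition of at least 50% and at least 75% of replicates reaching 50%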;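 also: plate controls were DMSO neutral control for no effect and GW8510 at 10 µM for full effect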
# CAL PDZ FP-1: untagged CAL PDZ binding inhibitors, primary screen, biochemical, fluorescence polarization, HTS | Golgi-associated PDZ and coiled-coil motif-containing protein (Homo sapiens), Q9HD26 | purified CAL PDZ, TMR-peptide fluorescence polarization, 1 h | inhibition, % at 24.9 µM | hit rate 0.92% among 300,000 | AID 602252, 2012;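 active = mean inhibition of at least 30% with at least half of replicates also reaching 30%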;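 also: 0% = DMSO neutral control and 100% = excess unlabeled competitor peptide PRC23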
# CAL PDZ FP-2: CAL PDZ peptide-binding inhibitors, primary screen, biochemical, fluorescence polarization, Cer-tagged CAL PDZ, HTS. purified CAL PDZ, TMR-peptide fluorescence polarization, 1 h. inhibition, % at 20 µM. Golgi-associated PDZ and coiled-coil motif-containing protein (Homo sapiens), Q9HD26. hit rate 0.02% among 330,000;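 active = highest replicate inhibition of at least 40%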;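 also: plate controls were DMSO neutral control wells for no effect and unlabeled competitor peptide control wells for full effect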
#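 Test system: purified CerCALP PDZ construct; Compound dosing: one concentration, 20 µM compound; Also added: TMR-labelled reporter peptide T*-PRC34 bound in PDZ groove; Read-out: inhibition from polarization loss; Controls: unlabelled peptide and DMSO controls; Signal: FP readout, S and P plane fluorescence; Incubation: 1 h at RT.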
# DYRK1A inh: rat Dyrk1A kinase inhibitors, primary screen, biochemical, single point, plate reader | inhibition, % at 12.5 µM | hit rate 0.43% among 310,000 | AID 504441, 2011 | Dual specificity tyrosine-phosphorylation-regulated kinase 1A (Rattus norvegicus), Q63470 | ADP-Glo luminescence, NFATc1 peptide; in the data active = inhibition above about 50%;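 also: plate controls were vehicle with enzyme for no effect and no enzyme for full effect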
# ADP-Glo artifact: ADP-Glo luciferase interference without Dyrk1A, dose response, artefact control for Dyrk1A inhibitor project, biochemical, luminescence, cherry-pick, set 02 | shares compounds with DYRK1A inh | ADP-Glo luciferase artifact assay, no Dyrk1A | AC50, µM (series often up to 12 µM), for the others: top-dose activity change, negative = inhibition | 1,300 tested, under 10 active;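 active = fitted half-maximal dose AC50 no more than ten times the top valid tested dose, with luminescence dropping as dose rises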
# Numbers without * were called inactive; . = not tested or not shown. An excerpt weighted towards active compounds, which were near 1.7% of everything screened.
SMILES,dFosB activator,UUG fidelity,CDK5 inh,CAL PDZ FP-1,CAL PDZ FP-2,DYRK1A inh,ADP-Glo artifact
Cc1ccccc1S(=O)(=O)NCC[C@@H]1CC[C@H](NC(=O)C2CCCC2)[C@@H](CO)O1,.,2.6,.,.,.,.,.
CN(C)CCCOC(=O)COc1ccc(Br)cc1,0.2,.,-0.7,-31.4,0.0,68.5*,9.0%
CC1CCC(C(C)C)C2=C1C(C#N)(C#N)C(C#N)(C#N)C(c1ccccc1)N2 (configuration not stated),-1.8,-17.6,-0.3,-0.6,-0.1,54.2*,7.1%
CNC[C@H]1Oc2ccc(NC(=O)Nc3ccc(OC)cc3)cc2C(=O)N([C@@H](C)CO)C[C@@H]1C,.,-2.4,.,.,.,.,.
CN(C)C(=O)CSc1ncnc2scc(-c3ccccc3)c12,-10.5,.,-0.7,-5.3,-0.9,8.8,.
O=C(O)CSc1ncnc2scc(-c3ccccc3)c12,-3.5,-15.3,4.9,0.0,-2.6,72.9*,10.9%
C=CCn1c(SCC(=O)Nc2nc3ccccc3s2)nc(O)c(CC)c1=O,-5.8,-24.7,-1.2,.,-1.2,51.1*,5.9%
CCc1c(O)nc(SCC(=O)Nc2nc3ccccc3s2)n(-c2ccccc2)c1=O,1.5,-25.4,-1.2,-5.0,-2.0,.,.
Cc1cc(NCCCn2ccnc2)n2ncc(-c3ccc(Cl)cc3)c2n1,-2.9,-30.0,1.3,.,-1.8,56.5*,9.6%
Cc1cc(NCCCN2CCOCC2)n2ncc(-c3ccc(Cl)cc3)c2n1,-4.1,14.0,0.4,.,-1.1,-1.3,.
C=CCc1ccc(OCCOc2ccc(/C=N/n3cnnc3)cc2OCC)c(OC)c1,4.3,-11.1,0.8,-2.3,0.2,60.1*,10.4%
COc1cc(/C=N/n2cnnc2)ccc1OCCOc1ccccc1,-10.4,-23.7,1.7,-6.0,-1.4,6.0,.
c1ccc(-c2nnc(CSc3ccc4c(c3)OCCO4)o2)cc1,-6.0,-16.0,0.8,.,0.6,53.8*,14.1%
CCNC(=O)C[C@H]1CC[C@@H]2[C@@H](COc3ccc(NS(C)(=O)=O)cc3C(=O)N2C)O1,.,6.6,.,.,.,.,.
Clc1ccc(-c2nc3ncccn3c2Nc2ccc3c(c2)OCO3)cc1,-8.5,-22.2,-0.4,-5.5,-0.4,3.0,.
Oc1ccc(-c2nc3ncccn3c2Nc2ccc3c(c2)OCO3)cc1,1.5,-11.4,1.7,0.5,1.1,59.5*,7.8%
Cc1noc(C)c1NC(=O)Nc1ccc2c(c1)CC(=O)N([C@@H](C)CO)C[C@H](C)[C@@H](CN(C)S(C)(=O)=O)O2,.,0.5,.,.,.,.,.
Cn1c(O)c(C2=c3ccccc3=NC2=O)[nH]c1=S,4.9,.,3.1,-1.2,-2.5,-4.8,.
COc1ccc2nc(-n3c(O)c(C4=c5ccccc5=NC4=O)[nH]c3=S)sc2c1,-4.9,-4.3,2.4,2.0,-1.8,63.0*,7.9%
CN(C)CCCNC(=O)c1cc2sc3ccccc3c2s1,-19.9,.,0.2,-1.1,-3.6,18.4,.
CN(C)CCNc1ccc(CO)c2sc3ccc(O)cc3c(=O)c12,38.2*,.,1.4,-3.1,-0.1,76.7*,7.3%
COc1ccc(S(=O)(=O)N(C)C[C@H]2Oc3c(NS(=O)(=O)c4c(C)noc4C)cccc3C(=O)N([C@H](C)CO)C[C@H]2C)cc1,.,-1.0,.,.,.,.,.
C(=N\NC1=Nc2cccc3cccc1c23)/c1ccccn1,-2.4,.,1.2,7.1,1.0,53.3*,9.2%
O=C(CSc1ncnc2sc3c(c12)CCCCC3)NCc1ccco1,-15.8,2.6,-0.1,-0.5,-3.6,6.9,.
CSc1nc(SCC(N)=O)c2c3c(sc2n1)CN(C)CC3,-2.2,-12.9,2.8,-0.5,.,85.4*,10.2%

# Ordered by value in dFosB activator (highest first): some entries from above.
SMILES,dFosB activator,UUG fidelity,CDK5 inh,CAL PDZ FP-1,CAL PDZ FP-2,DYRK1A inh,ADP-Glo artifact
CCc1c(O)nc(SCC(=O)Nc2nc3ccccc3s2)n(-c2ccccc2)c1=O,1.5,-25.4,-1.2,-5.0,-2.0,.,.
Cc1cc(NCCCn2ccnc2)n2ncc(-c3ccc(Cl)cc3)c2n1,-2.9,-30.0,1.3,.,-1.8,56.5*,9.6%
Cc1cc(NCCCN2CCOCC2)n2ncc(-c3ccc(Cl)cc3)c2n1,-4.1,14.0,0.4,.,-1.1,-1.3,.
C=CCn1c(SCC(=O)Nc2nc3ccccc3s2)nc(O)c(CC)c1=O,-5.8,-24.7,-1.2,.,-1.2,51.1*,5.9%
Clc1ccc(-c2nc3ncccn3c2Nc2ccc3c(c2)OCO3)cc1,-8.5,-22.2,-0.4,-5.5,-0.4,3.0,.

# Later entries:
SMILES,dFosB activator,UUG fidelity,CDK5 inh,CAL PDZ FP-1,CAL PDZ FP-2,DYRK1A inh,ADP-Glo artifact
CSc1nc(SCC(=O)NCc2ccco2)c2c3c(sc2n1)CN(C)CC3,-10.0,-7.9,-0.1,-1.3,.,63.0*,8.0%
COCC(=O)N(C)C[C@@H]1Oc2cc(-c3ccncc3)ccc2S(=O)(=O)N([C@H](C)CO)C[C@H]1C,.,-8.1,.,.,.,.,.
C[C@@H]1CCCCO[C@H](CN(C)Cc2ccncc2)[C@H](C)CN([C@@H](C)CO)C(=O)c2cc(NS(=O)(=O)c3ccc(F)cc3)ccc2O1,.,3.5,.,.,.,.,.
Cc1ccccc1/C=N/Nc1ncnc2nc[nH]c12,5.8,-12.6,21.8,-6.1,0.5,62.8*,8.0%
Fc1ccc(/C=N/Nc2ncnc3nc[nH]c23)cc1F,-5.7,-14.2,13.9,.,-3.3,25.4,.
Cc1ccsc1/C=N/Nc1ncnc2nc[nH]c12,-9.8,.,43.0,2.0,0.5,53.8*,2.1%
C(=N\Nc1ncnc2nc[nH]c12)/c1cccs1,3.5,-22.1,24.3,-5.0,-1.9,66.0*,-0.8%
COc1ccc(S(=O)(=O)N[C@H]2CC[C@H](CC(=O)N3CCc4ccccc4C3)O[C@@H]2CO)cc1,.,-5.4,.,.,.,.,.
O=C(CCSc1nnc2scc(-c3ccccc3)n12)NCc1ccc2c(c1)OCO2,6.0,-23.4,0.6,.,-2.1,1.4,.
c1ccc(-c2csc3nnc(SCc4ccc5c(c4)OCO5)n23)cc1,-3.8,-13.5,5.3,2.9,-1.4,57.9*,6.5%
Cc1ccccc1-c1ccc([C@H]2[C@@H](CO)N3CCCCN(CC4CC4)C[C@H]23)cc1,.,-1.1,.,.,.,.,.
O=C(O)COc1ccc2occ(C(=O)c3ccccc3)c2c1,-5.7,-4.9,0.3,-2.3,.,66.0*,7.8%
Cc1ccc(C(=O)c2coc3ccc(OCC(=O)O)cc23)cc1,-9.8,11.9,0.0,-1.2,-2.6,70.3*,10.4%
CC(=O)Oc1ccc2occ(C(=O)c3ccccc3)c2c1,.,-10.2,.,.,.,.,.
C[C@H]1CN([C@@H](C)CO)C(=O)Cc2cc(NC(=O)Nc3ccc4c(c3)OCO4)ccc2O[C@@H]1CN(C)C(=O)Nc1ccc(C(F)(F)F)cc1,.,1.8,.,.,.,.,.
c1cncc(-c2nc(-c3cccs3)cs2)c1,-1.7,-21.9,3.6,4.0,-1.7,29.7,.
c1cncc(-c2csc(-c3cccnc3)n2)c1,-18.9,-15.8,2.6,-6.9,0.1,85.7*,9.4%
CCCNC(=O)N1C[C@@H](O)COC[C@@H]2O[C@H](CC(=O)NCc3ccc(Cl)c(Cl)c3)CC[C@H]21,.,-8.2,.,.,.,.,.
Clc1ccc2nc(COc3ccccc3)[nH]c2c1,-6.5,-11.9,0.3,-6.3,.,53.9*,8.9%

# Assay outcomes: PubChem, Broad Institute
